The source of these data is ChEMBL document CHEMBL1128191, “1-(1-[4-[(N-acetyl-4-piperidinyl)oxy]-2-methoxybenzoyl]piperidin-4-yl)-4H-3,1-benzoxazin-2(1H)-one (L-371,257): a new, orally bioavailable, non-peptide oxytocin antagonist” (J Med Chem, 1995).

Broadly, the Ki is a dissociation constant, usually derived from enzyme kinetics or from competition with a known ligand. Read a low Ki as tighter binding.

Each structure is given as a SMILES string.

The assay addresses T1, Oxytocin receptor (Rattus norvegicus, UniProt P70536).
T1 sequence (P70536 whole entry): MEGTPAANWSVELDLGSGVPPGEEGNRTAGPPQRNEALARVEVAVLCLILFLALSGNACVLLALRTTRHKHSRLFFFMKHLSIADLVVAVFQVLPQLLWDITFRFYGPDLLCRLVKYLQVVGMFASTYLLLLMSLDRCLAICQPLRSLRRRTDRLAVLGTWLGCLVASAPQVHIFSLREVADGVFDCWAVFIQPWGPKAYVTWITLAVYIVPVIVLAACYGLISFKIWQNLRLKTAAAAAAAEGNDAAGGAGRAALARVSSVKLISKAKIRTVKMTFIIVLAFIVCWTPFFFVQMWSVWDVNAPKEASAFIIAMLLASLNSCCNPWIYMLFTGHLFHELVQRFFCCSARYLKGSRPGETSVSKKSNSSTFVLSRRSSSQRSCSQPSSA
The assay is described as follows: Binding affinity was evaluated by measuring the displacement of [3H]-OT (oxytocin) from specific binding sites in uterine tissue obtained from rats. (In general: Loss of bound radioactivity is the signal in a displacement assay; it reports binding, not function.)

In turn, `CC(=O)N1CCCCC1CCOc1ccc(C(=O)N2CCC(N3C(=O)OCc4ccccc43)CC2)cc1` (configuration not stated) returned a Ki of 130 nM. To `COc1cc(OC2CCN(C(C)=O)CC2)ccc1C(=O)N1CCC(N2C(=O)OCc3ccccc32)CC1` belongs 19 nM.
